Here are results for 20 molecules from PubChem BioAssay (Tox21).

SMILES strings stand for the structures. Values joined by “and” are separate entries in the source; they are usually repeats but may differ in a detail not shown here. Equal values may be shown once. This is a selection; strong and weak results do not stand in their true shares. Results filed as inconclusive are left out. Active and inactive are the calls of the source. Calls follow the shape of the full dose curve.
% is scaled to controls: 0 for no effect and ±100 for the full control effect.

A short description of one assay: p53 small molecule agonists, cell-based qHTS assay with human liver microsomes: qHTS cell viability counter screen (AID 1963579). Also: nearly all actives have a fitted effect of over 45% in size. The conditions noted are these: p53RE-bla HCT-116 viability, ATP luminescence, 16 h, HLM; at 30.3 µM (top of the series). The source says: National Center for Advancing Translational Sciences [NCATS]
Division of Preclinical Innovation [DPI]
U.S. Environmental Protection Agency [EPA]
National Institutes of Environmental Health Sciences [NIEHS]
National Toxicology Program [NTP]
U.S. Food and Drug Administration [FDA]
p53, a tumor suppressor protein, is activated following cellular insult, including DNA damage and other cellular stresses. The activation of p53 regulates cell fate by inducing DNA repair, cell cycle arrest, apoptosis, or cellular senescence. The activation of p53, therefore, is a good indicator of DNA damage and other cellular stresses. […] The activation of the reporter gene under culture conditions can be detected by fluorescence intensity. This cell line was used to screen the Tox21 10K compound library in the condition of presence of human liver microsomes and to identify agonists that activate the p53 signaling pathway after in vitro metabolic activation (Ooka et al., Archive of Toxicology 96:1975-1987, 2022).
Tox21 Assay Protocol Summary:
The p53RE-bla cells were dispensed at 4,000cells/3ul/well in 1536-well black-clear bottom plates. After the assay plates were incubated at 37 C, 5% CO2 incubator for 5 hours, 23 nL of compounds dissolved in DMSO, positive controls or DMSO only was transferred to the assay plate. Following compound addition, 3 uL of human liver microsomes (XenoTech, Kansas City, KS) at final concentration of 0.5 mg/mL and 1uL of B-Nicotinamide adenine dinucleotide 2'-phosphate (NADPH) at final concentration of 0.5 mg/mL were transferred to the assay plate. The plates were incubated at 37 C for 16 hours. 1 uL of LiveBLAzer detection mixture was added to each well and the plates were incubated at room temperature in the dark for 2 h. Fluorescence intensity at 460 and 530 nm emission and 405 nm excitation were measured by an Envision plate reader. For cell viability readout that measures cytotoxicity, 4 ul/well of CellTiter-Glo reagent was added into the assay plates using a Flying Reagent Dispenser. After 30 min incubation at room temperature, the luminescence intensity in the plates was measured using a ViewLux plate reader.
With `OCCSCCO`, the activity change, negative = cytotoxicity was inactive: 3.51%.

Staying with this assay, now noted: p53RE-bla HCT-116 viability, ATP luminescence, 16 h, HLM; at 66 µM (top of the series).
Consider `OCCSCCO`, for which the activity change, negative = cytotoxicity is inactive: -4.91%.

The same assay, now with this note: p53RE-bla HCT-116 viability, ATP luminescence, 16 h, HLM; at 66 µM (top of the series) unless noted.
For `Nc1cc([N+](=O)[O-])cc([N+](=O)[O-])c1O`, the activity change, negative = cytotoxicity is inactive: -18%.

Regarding `CP(=O)(O)OCCC[Si](O)(O)O`, the activity change, negative = cytotoxicity is inactive: 5.58%.

For `Cc1ccc([N+](=O)[O-])c([N+](=O)[O-])c1`, the activity change, negative = cytotoxicity was inactive: -21.4% and inactive: 0.789%.

Consider `COc1ccc([N+](=O)[O-])cc1[N+](=O)[O-]`, for which the activity change, negative = cytotoxicity is inactive: -0.71%.

Take `CC(C)N(CCO)C(C)C`: the activity change, negative = cytotoxicity is inactive: -1.18%.

On to `O=[N+]([O-])OCC(CO[N+](=O)[O-])(CO[N+](=O)[O-])CO[N+](=O)[O-]`, for which the activity change, negative = cytotoxicity is inactive: -0.109%.

Regarding `CC(C)OP(C)(=O)OC(C)C`, the activity change, negative = cytotoxicity is inactive: -0.249% and inactive: 3.35%.

As for `CCN(CC)CCCl`, the activity change, negative = cytotoxicity was inactive: 2.91%.

For the molecule `CCOP(=O)(CC)OCC`, the activity change, negative = cytotoxicity was inactive: 4.19%.

Consider `C/C1=C2N=C(/C=C3N=C(/C(C)=C4\[N-][C@@](C)([C@@H]5N=C1[C@](C)(CCC(=O)NC[C@@H](C)OP(=O)([O-])O[C@H]1[C@@H](O)[C@@H](n6cnc7cc(C)c(C)cc76)O[C@@H]1CO)[C@H]5CC(N)=O)[C@@](C)(CC(N)=O)[C@@H]4CCC(N)=O)[C@@](C)(CC(N)=O)[C@@H]\3CCC(N)=O)C(C)(C)[C@@H]/2CCC(N)=O.[C-]#N.[Co+3]`, for which the activity change, negative = cytotoxicity was inactive: -21.5% [at 30.3 µM].

Turning to `CN(C)CCCl`, the activity change, negative = cytotoxicity was inactive: -1.1%.

Turning to `CCOP(=O)(CC)Oc1ccc([N+](=O)[O-])cc1` (stereo unspecified), the activity change, negative = cytotoxicity was inactive: 0.86% [at 30.3 µM].

As to `Cc1c([N+](=O)[O-])cccc1[N+](=O)[O-]`, the activity change, negative = cytotoxicity was inactive: 2.26% and inactive: 9.15%.

As to `Cc1ccc([N+](=O)[O-])cc1[N+](=O)[O-]`, the activity change, negative = cytotoxicity was inactive: 0.0779% and inactive: 0.0445%.

Regarding `N#CBr`, the activity change, negative = cytotoxicity is inactive: 0.497%.

Regarding `[NH4+].[O-][Cl+3]([O-])([O-])[O-]`, the activity change, negative = cytotoxicity is inactive: 0.843% and inactive: 17.9%.

With `COP(C)(=O)OC`, the activity change, negative = cytotoxicity is inactive: -2.25% and inactive: -17.9%.

For `O=[N+]([O-])[O-].[NH4+]`, the activity change, negative = cytotoxicity was inactive: 9.8% and inactive: -16.9%.

As to `N=C(N)N[N+](=O)[O-]`, the activity change, negative = cytotoxicity is inactive: 13.2%.
